Earlier results on 2 substances are cited in article PMC5807066.

Protein sequences, listed by entry. Tags and fused reporters are not part of them.
UniProt P10408, whole entry: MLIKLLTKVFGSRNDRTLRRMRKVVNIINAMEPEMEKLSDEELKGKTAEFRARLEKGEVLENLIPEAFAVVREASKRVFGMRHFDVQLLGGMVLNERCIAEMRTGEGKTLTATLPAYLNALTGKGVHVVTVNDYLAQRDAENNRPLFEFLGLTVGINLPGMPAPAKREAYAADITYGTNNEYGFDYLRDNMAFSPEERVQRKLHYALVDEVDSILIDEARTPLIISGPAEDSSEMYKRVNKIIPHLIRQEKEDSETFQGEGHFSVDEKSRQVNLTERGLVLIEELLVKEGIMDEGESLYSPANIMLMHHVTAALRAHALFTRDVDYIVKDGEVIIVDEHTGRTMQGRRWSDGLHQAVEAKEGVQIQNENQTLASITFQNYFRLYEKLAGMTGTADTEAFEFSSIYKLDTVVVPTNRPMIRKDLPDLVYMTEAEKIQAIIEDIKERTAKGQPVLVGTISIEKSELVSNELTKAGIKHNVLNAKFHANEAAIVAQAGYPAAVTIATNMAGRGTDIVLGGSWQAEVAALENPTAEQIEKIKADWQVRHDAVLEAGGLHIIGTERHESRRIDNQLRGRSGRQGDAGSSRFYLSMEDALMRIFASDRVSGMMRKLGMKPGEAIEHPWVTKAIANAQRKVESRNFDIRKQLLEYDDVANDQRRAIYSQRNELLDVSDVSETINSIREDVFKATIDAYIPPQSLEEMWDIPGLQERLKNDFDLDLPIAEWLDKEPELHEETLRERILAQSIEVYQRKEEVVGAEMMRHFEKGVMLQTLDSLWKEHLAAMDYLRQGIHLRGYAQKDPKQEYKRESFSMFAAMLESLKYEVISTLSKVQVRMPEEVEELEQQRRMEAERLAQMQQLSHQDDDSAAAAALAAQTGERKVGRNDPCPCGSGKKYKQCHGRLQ

In general, Kd refers to the equilibrium constant for the complex coming apart.

Data set [1] has as its target SecYEG (Escherichia coli) (UniProt P0AGA2).
For data set [2] the target is unchanged. The source holds these as a separate data set.

Read-outs that look alike come from different tables or passages of the source.

For SecA (from UniProt P10408), the Kd in data set [1] is 40 nM. With “SecA:SecB:precursor complex (from UniProt P10408)”, in data set [2], the Kd is 60 nM.
